One experiment concerns the target T1, E. coli Endo IV (Escherichia coli, UniProt P0A6C1).
T1 construct: made in house
Description: E. coli Endo IV profiling counterscreen.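 Also: selectivity counterscreen of candidate APE1 inhibitors against the bacterial endonuclease Endo IV, run in the same assay format as the primary APE1 high-throughput screen.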 The settings on record: read-out: EndoIV IC50. Format: biochemical. A general note: A counterscreen serves to expose hits that act by an unwanted route or on another target.

Experiment [1] has as its target double-stranded 17-mer DNA fragment. The experiment in a line: ThO (Thiazole Orange) DNA displacement assay.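 Also: miniaturized displacement of the intercalating dye from unlabeled duplex DNA, used to flag nonspecific DNA binders, chiefly intercalators, groove binders may be missed.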 The settings on record: read-out: ThO-DNA binding IC50.

As to `CC(=O)Nc1sc2c(c1-c1nc3ccccc3s1)CCN(C(C)C)C2` [MLS000419194], the half-maximal inhibitory concentration (IC50) (as a rule, the midpoint of a concentration-inhibition curve) at E. coli Endo IV came to 12.6 µM.

As for `Cc1ccc2c(=O)c3ccccc3n(CCCN)c2c1C` [NCGC00161415], the IC50 on E. coli Endo IV was found to be 12.6 µM.

For `Cc1c2c(c(O)c3c(O)cccc13)C(=O)O[C@H]2C1C(N(C)C)C(O)=C(C(N)=O)C(=O)[C@H]1O` (stereo partly shown) [NCGC00163605], the IC50 in experiment [1] is 12.6 µM.

Consider “phthalocyanine tetrasulfonate hydrate [NCGC00165867]”, for which, at E. coli Endo IV, the half-inhibitory concentration (IC50) came to 1.6 µM.

The values are drawn from article PMC3479139, “Diverse Small Molecule Inhibitors of Human Apurinic/Apyrimidinic Endonuclease APE1 Identified from a Screen of a Large Public Collection” (PLoS ONE, 2012).
